Assay results: US10072026B2, “Crystalline form of 3-((1R,3s,5S)-3-((7-((5-methyl-1H-pyrazol-3-yl)amino)-1,6-naphthyridin-5-yl)amino)-8-azabicyclo[3.2.1]octan-8-yl)propanenitrile” (priority 2015, dated 2018)

Columns and labels:
[1] = system: IL-4 induced STAT6 phosphorylation in THP-1 human monocytic cells; assay: Cellular JAK potency assay, THP-1; details: THP-1, read-out: THP-1 IL4 pIC50 (converted)
[2] = system: IL-13 induced STAT6 phosphorylation in BEAS-2B human lung epithelial cells; assay: AlphaScreen cellular JAK potency assay, BEAS-2B; details: read-out: BEAS2B pIC50 (converted)
JAK3 = JAK3 (Homo sapiens (Human), UniProt P52333); assay: LanthaScreen JAK biochemical assay (JAK3)

COC(=O)c1cnc2cc(Nc3cc(C)[nH]n3)nc(N[C@@H]3C[C@H]4CC[C@@H](C3)N4C(=O)C(F)F)c2c1 [Example 6-37] gave an IC50 [1] of 31.6 to 200 nM.
In the case of COc1ccnc2cc(Nc3cc(C)[nH]n3)nc(N[C@@H]3C[C@H]4CC[C@@H](C3)N4C3(CC#N)COC3)c12 [Example 7-10], the IC50 [1] is reported as less than 31.6 nM and the IC50 [2] is reported as 31.6 to 200 nM.
With CCS(=O)(=O)N1[C@@H]2CC[C@H]1C[C@H](Nc1nc(Nc3cc(C)[nH]n3)cc3nc(CO)ccc13)C2 [Example 5-13] the IC50 [1] was 31.6 to 200 nM.
In the case of CCC1(S(=O)(=O)N2[C@@H]3CC[C@H]2C[C@H](Nc2nc(Nc4cc(C)[nH]n4)cc4nc(CN5CCN(C)CC5)ccc24)C3)CC1 [Example 5-36], the IC50 [1] is reported as less than 31.6 nM and the IC50 [2] is reported as less than 31.6 nM.
Cc1cc(Nc2cc3ncccc3c(N[C@@H]3C[C@H]4CC[C@@H](C3)N4C(=O)C(F)F)n2)n[nH]1 [Example 5, 2,2-difluoro-1-((1R,3s,5S)-3-((7-((5-methyl-1H-pyrazol-3-yl)amino)-1,6-naphthyridin-5-yl)amino)-8-azabicyclo[3.2.1]octan-8-yl)ethan-1-one] gave an IC50 [1] of less than 31.6 nM and an IC50 [2] of less than 31.6 nM.
With Cc1cc(Nc2cc3ncccc3c(N[C@@H]3C[C@H]4CC[C@@H](C3)N4S(=O)(=O)C3CNC3)n2)n[nH]1 [Example 4-9] the Ki (JAK3) was 1 to 100 nM.
With Cc1cc(Nc2cc3ncccc3c(N[C@@H]3C[C@H]4CC[C@@H](C3)N4C3CCOC3=O)n2)n[nH]1 (stereo partly shown) [Example 1-26] the Ki (JAK3) was 1 to 100 nM.
In the case of COCCS(=O)(=O)N1[C@@H]2CC[C@H]1C[C@H](Nc1nc(Nc3cc(C)[nH]n3)cc3ncccc13)C2 [Example 6, N^5-((1R,3s,5S)-8-((2-methoxyethyl)sulfonyl)-8-azabicyclo[3.2.1]octan-3-yl)-N^7-(5-methyl-1H-pyrazol-3-yl)-1,6-naphthyridine-5,7-diamine], the IC50 [1] is reported as 31.6 to 200 nM and the IC50 [2] is reported as 31.6 to 200 nM.
COC(=O)CN1[C@@H]2CC[C@H]1C[C@H](Nc1nc(Nc3cc(C)[nH]n3)cc3ncccc13)C2 [Example 1-1] was tested, and the “JAK 3 (pKi)” value (JAK3) was “C (C represents a pKi value between 7 and 9 (Ki between 100 nM and 1 nM))”.
